Laboratory results: ChEMBL document CHEMBL1147168, “Quinuclidines as selective agonists for alpha-7 nicotinic acetylcholine receptors” (Bioorg Med Chem Lett, 2007)

Chains of the proteins cited; added tags and fusions are not shown.
UniProt P36544, whole entry: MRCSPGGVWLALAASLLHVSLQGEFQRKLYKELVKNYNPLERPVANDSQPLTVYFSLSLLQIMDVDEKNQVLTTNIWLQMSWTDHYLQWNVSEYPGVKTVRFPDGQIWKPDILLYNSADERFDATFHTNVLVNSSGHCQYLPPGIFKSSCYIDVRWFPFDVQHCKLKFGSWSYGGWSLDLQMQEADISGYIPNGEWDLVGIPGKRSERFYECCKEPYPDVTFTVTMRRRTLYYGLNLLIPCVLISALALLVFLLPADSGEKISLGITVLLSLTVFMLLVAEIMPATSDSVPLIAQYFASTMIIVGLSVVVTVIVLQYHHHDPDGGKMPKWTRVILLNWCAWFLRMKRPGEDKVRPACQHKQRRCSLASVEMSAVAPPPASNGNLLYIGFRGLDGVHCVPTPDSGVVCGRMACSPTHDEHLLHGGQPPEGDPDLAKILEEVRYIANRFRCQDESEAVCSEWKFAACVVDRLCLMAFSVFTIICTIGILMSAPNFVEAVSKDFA

Biological target: Neuronal acetylcholine receptor subunit alpha-7 (Homo sapiens, UniProt P36544)
Test: Agonist activity at nAChR alpha-7 expressed in Xenopus oocytes
Format: functional, cell-based, Oocyte

## C[N+]12CCC(CC1)CC2
  EC50: 40 µM
